Laboratory results: paper PMC13355314, “Charged molecular glue discovery enabled by targeted degron display” (Nature Chemical Biology, 2026)

Sequences of proteins named here, by UniProt entry; tags and fusion partners are left off. A change or cut given only in a name is not applied to a line headed by its entry.
UniProt P62699: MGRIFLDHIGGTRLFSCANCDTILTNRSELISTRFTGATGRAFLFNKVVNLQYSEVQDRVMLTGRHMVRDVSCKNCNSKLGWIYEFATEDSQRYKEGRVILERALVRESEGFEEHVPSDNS

Target: BRD4BD1 / YPEL5–WDR26 (Homo sapiens, UniProt O60885+P62699)
Assay: Octet BLI, degrader-bound BRD4BD1 binding to immobilized YPEL5–WDR26
Settings: BRD4BD1 titrated at 5 μM degrader

Q: How did the Kd turn out when `Cc1sc2c(c1C)C(c1ccc(NC(=O)c3cc(Cl)c(S(=O)O)c(Cl)c3)cc1)=N[C@@H](CC(=O)OC(C)(C)C)c1nnc(C)n1-2` [ZZ2-SO2H, 4-((4-((S)-6-(2-(tert-butoxy)-2-oxoethyl)-2,3,9-trimethyl-6H-thieno[3,2-f][1,2,4]triazolo[4,3-a][1,4]diazepin-4-yl)phenyl)carbamoyl)-2,6-dichlorobenzenesulfinic acid] was run?
A: The Kd was 3.24 ± 0.15 nM.
